Values quoted from earlier work as cited in patent US9238053B2, “Methods for treatment of pain” (Nocicepta LLC, priority 2009, dated 2016).
Where two headings read alike, the source gives them in different places.

Sequences of proteins named here, by UniProt entry; tags and fusion partners are left off. A change or cut given only in a name is not applied to a line headed by its entry.
UniProt P01210: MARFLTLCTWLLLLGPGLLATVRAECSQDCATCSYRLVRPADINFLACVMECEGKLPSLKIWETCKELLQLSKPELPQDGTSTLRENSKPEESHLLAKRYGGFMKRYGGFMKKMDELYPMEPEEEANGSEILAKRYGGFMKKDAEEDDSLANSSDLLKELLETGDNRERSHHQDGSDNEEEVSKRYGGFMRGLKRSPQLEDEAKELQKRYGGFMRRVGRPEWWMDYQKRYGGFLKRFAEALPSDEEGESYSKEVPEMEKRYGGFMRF

Test system: mice
Conditions: cited from earlier work

## leucine enkephalin (YGGFL; Leu-enkephalin; UniProt P01210 230-234, looked up) [an opioid peptide]
Nasal administration alone, mice
  analgesic effect in acetic acid writhing test: very limited analgesic effect
Nasally administered with mixed enzyme inhibitors and absorption enhancers
  analgesic effect in acetic acid writhing test: high analgesic activity
